Only a part is listed here, and it is no random draw. Calls of active or inactive are those of the source. Cut-off read from the data, not from the text of the source: active = inhibition above about 35% (passing the limit was not always enough); inactive = the rest.
Biological target: Polyadenylate-binding protein 1 (Homo sapiens) (UniProt P11940)
Test: PAM2 peptide displacement from PABP1 MLLE – biochemical, fluorescence polarization, FITC-PAM2, GST-MLLE, primary screen (AID 588489);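 note: plate controls were DMSO wells with GST-MLLE for no effect and wells lacking GST-MLLE protein for full effect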
Conditions: at 20 µM, hits give high values

Protein sequences, listed by entry. Tags and fused reporters are not part of them.
UniProt P11940, whole entry: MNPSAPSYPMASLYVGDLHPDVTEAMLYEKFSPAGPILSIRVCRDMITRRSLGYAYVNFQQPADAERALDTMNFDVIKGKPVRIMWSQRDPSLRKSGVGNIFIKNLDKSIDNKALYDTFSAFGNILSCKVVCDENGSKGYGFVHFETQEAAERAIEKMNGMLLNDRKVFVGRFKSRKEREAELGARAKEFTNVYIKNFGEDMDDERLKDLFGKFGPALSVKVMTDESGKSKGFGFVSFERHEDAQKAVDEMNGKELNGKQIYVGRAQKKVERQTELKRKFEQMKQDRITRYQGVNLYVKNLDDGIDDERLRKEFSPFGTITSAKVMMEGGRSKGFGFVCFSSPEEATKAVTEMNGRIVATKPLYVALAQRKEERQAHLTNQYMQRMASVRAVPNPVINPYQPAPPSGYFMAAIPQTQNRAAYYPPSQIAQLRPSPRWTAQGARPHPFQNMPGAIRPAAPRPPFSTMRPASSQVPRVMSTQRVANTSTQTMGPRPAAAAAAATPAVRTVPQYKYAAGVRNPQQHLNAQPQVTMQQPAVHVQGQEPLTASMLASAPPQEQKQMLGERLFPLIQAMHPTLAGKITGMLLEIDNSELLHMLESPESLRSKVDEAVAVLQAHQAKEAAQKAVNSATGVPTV

Row | SMILES | inhibition
1 | CCC(=O)N(c1ccccc1)C1(COC)CCN(CCc2cccs2)CC1 | inactive: 2.83%
2 | CCC(=O)N(c1ccccc1)C1(COC)CCN(CCn2nnn(CC)c2=O)CC1 | inactive: 0.68%

— PubChem BioAssay AID588489 (Sanford-Burnham Center for Chemical Genomics, 2011)
